# Apparent affinities of Ab-14 variants for a coronavirus HR2 peptide

Data: MIT Lincoln Laboratory AlphaSeq set, Li et al. 2023, doi:10.1038/s41467-023-39022-2, as distributed in FLAb.

The target is the same throughout: PDVDLGDISGINAS, from the HR2 region of SARS-CoV-2 spike.

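This is the validation round: designs drawn from the data on random variants, tested in the same kind of assay. Their group label is 14L_GP_HC (GP: Gaussian process model; HC: hill climbing; a sequence that several methods proposed may carry one label only). In AlphaSeq, yeast of one mating type display the scFv and yeast of the other type display the target. Mating (16 h, 30 °C) was followed by selection of diploids and sequencing of their barcodes. A regression on co-assayed BCL2-family reference pairs converts the normalised counts of each replicate to an apparent Kd. Each pool was mated in six replicate cultures.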

Parent scFv Ab-14: VH joined to VL by a 15-residue (Gly4Ser)3 linker. Changes lie in the light chain CDRs alone.
VH: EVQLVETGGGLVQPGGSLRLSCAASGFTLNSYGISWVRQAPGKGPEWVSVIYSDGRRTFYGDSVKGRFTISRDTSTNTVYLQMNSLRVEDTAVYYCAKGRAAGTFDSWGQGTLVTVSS
VL: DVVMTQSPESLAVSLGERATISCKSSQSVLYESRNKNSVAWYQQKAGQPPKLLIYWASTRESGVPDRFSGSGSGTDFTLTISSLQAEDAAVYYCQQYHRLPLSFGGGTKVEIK

The parent's light chain CDRs are KSSQSVLYESRNKNSVA, WASTRES, QQYHRLPLS; each variant's own CDRs replace them letter for letter.
The read-out is the apparent dissociation constant on a log10 scale (nM): the lower, the stronger.
An entry "n.d." has no value in the source: the pair was not observed among the diploids in that replicate. This suggests poor binding but is not conclusive.

CDR-L1	CDR-L2	CDR-L3	replicates, log10 nM	control signals
KQSISVLQESRNKNSVA	DASTRES	QQYHRLPLS	0.39 0.44 0.91 0.62 0.57 0.83	0/18
KVSQSWLYESRNKNSVA	HASTREQ	QQYHRLPLS	-0.18 -0.19 -0.31 -0.37 -0.15 -0.13	3/18 (2.86)
KFSQSVLYESRMKNSVA	EASTRES	QQYHRLPLS	0.63 0.18 0.52 0.58 0.12 0.52	1/18 (1.65)
KDLQSVLYESRNKNSVA	EASTRED	QQYHRLPLS	0.26 0.09 -0.03 0.01 -0.03 0.14	0/18
KLPQGVLYESRMKNSVA	GASVRES	QQYHRLPLS	-0.34 -0.52 -0.48 -0.65 -0.19 -0.35	1/18 (1.46)
KLSQSWLYESRMKNSVA	GASTRES	QQYHRLPLS	0.31 0.44 0.04 -0.02 0.37 0.13	1/18 (2.79)
KLRQSTLYESRNQNSVA	QASTRES	QQYHRLPLS	-0.01 -0.18 -0.21 -0.23 -0.16 -0.04	0/18
KISQSELFESRNKNSVA	DASTRES	QQYHRLPLS	0.16 0.03 -0.22 -0.09 -0.20 0.04	1/18 (3.27)
HLSPSVLYESRNKNSVA	NASTRES	QQYHRLPLS	-0.12 -0.04 -0.14 -0.12 -0.25 -0.04	0/18
KSSQSELMESRNKNSVA	DASTRES	QQYHRLPLS	-0.23 -0.34 -0.40 -0.33 -0.43 -0.41	0/18
KVSQEDLYESRNKNSVA	DASTRES	QQYHRLPLS	-0.01 -0.01 -0.17 -0.26 -0.10 0.05	0/18
KVSQSWLMEQRNKNSVA	EASTRQS	QQYHRLPLS	0.44 0.45 0.33 0.27 0.31 0.52	5/18 (3.18)
KVLQSVVYEERNKNSVA	HASTREA	QQYHRLPLS	n.d. 2.07 1.56 1.11 1.58 2.25	0/18
KSYQGVLYESRNKNHVA	GASTRES	QQYHRLPLS	0.41 0.44 0.41 0.58 0.47 0.90	0/18
KQSQAGLYESRNKNSVA	DANTRES	QQYHRLPLS	-0.11 -0.30 -0.13 -0.23 -0.20 -0.14	0/18
KSLQSSLYESRNKNSVA	HASTRED	QQYHQLPLS	-0.19 -0.33 -0.41 -0.53 -0.47 -0.28	0/18
KSSTSVLYESHNKNSVA	NASTRMS	QQYHRLPLS	0.82 0.44 0.34 0.54 0.30 0.76	1/18 (4.07)
KESQSWDYESRNKNSVA	GASTRES	QQYHRLPLS	-0.12 -0.31 -0.47 0.05 0.10 0.04	0/18
AISQGWLYESRNKNSVA	GASTRED	QQYHRLPLS	-0.11 -0.31 -0.37 -0.22 -0.33 -0.26	2/18 (2.82)
KSSGSYLYESMNKNSVA	NASTRES	QQYHRLPLS	1.02 0.67 0.83 0.86 1.07 1.37	1/18 (3.37)
KLEQSVLYESRDKNSVA	HASTRED	QQYHRLPLS	0.10 -0.37 -0.48 -0.34 -0.49 -0.16	1/18 (1.24)
KLRQSTKYESRNQNSVA	SASTRES	QQYHRLPLS	0.53 0.41 0.22 0.29 0.41 0.56	2/18 (3.38)
KFSQSVLYESTTHNSVA	NASTRES	QQYHRLPLS	-0.61 0.27 0.42 -0.39 -0.24 -0.13	0/18
KFSQSFLYESRNKNSVA	GASTRES	QEYHRLPLS	-0.06 -0.06 0.32 0.41 0.32 0.60	1/18 (1.36)
KFSQSGLYESRTSNRVA	NASTRES	QQYHRLPLS	0.74 0.61 0.55 0.68 0.49 0.64	0/18
KSSQSVLNESRNKNSVA	DASTRES	QQYHRLPLS	0.83 1.16 0.42 0.44 0.73 0.70	1/18 (2.41)
KLRQSTGYESRNQNSVA	WASTRES	QQYHRLPLS	1.00 1.99 0.84 1.10 0.67 1.26	0/18
HLSPSVLYESRNKNSVA	DASTRES	QQYHRLPLS	-0.04 -0.22 -0.25 -0.55 0.01 0.05	0/18
KSSQSVLYESRNKNSVA	GASTRES	QNYHRLPLS	0.51 0.50 0.35 0.55 0.47 0.31	0/18
KQSQSVLYESRNKNSVA	QASTRES	QQYHRLPLD	1.94 2.11 1.92 2.22 2.75 1.91	0/18
KSQQSWLYESRNKNSVA	GASLRES	QQYHRLPLS	0.78 0.92 0.61 0.90 0.86 0.91	2/18 (1.86)
KVSISYLYESRNKNSVA	EASTRES	QQYHRLPLM	-0.26 -0.65 -0.70 -0.42 -0.51 -0.79	0/18
KLRQSTLYESRNPNSVA	AASTRES	QQYHRLPLS	0.37 0.26 0.22 0.14 0.03 0.27	1/18 (5.07)
KSDQGVLYESRNKNSVA	GASTRES	QQYHRLPLH	0.52 0.30 0.20 0.08 -0.01 0.64	0/18
KSSPSYLYESHNKNSVA	NASTRMS	QQYHRLPLS	0.80 0.49 0.70 0.26 0.42 0.62	2/18 (2.68)
KSSISMLYESRNKNSVA	AASTRES	QQYHRLPLS	0.80 0.66 0.61 0.84 0.45 0.60	1/18 (2.29)
KSSQSVLGEQRNKNSVA	DVSTRES	QQYHRLPLS	0.54 0.60 0.30 0.34 0.41 0.46	2/18 (1.75)
AQSQSVLYESRNKNSVA	GASTRES	QQYHRLPLS	0.16 -0.26 -0.12 -0.10 -0.25 -0.03	0/18
QSSQSDLYESRNKNSVA	GASTRES	QQYHRLPLS	0.08 0.10 0.17 0.15 -0.18 0.37	0/18
KCSKSVLFESRNKNSVA	NASTRES	QQYHRLPLS	0.17 0.08 -0.32 0.16 -0.20 0.20	1/18 (2.06)
KSSQVELYESRNKNSVA	GASTRES	QQYHRLPLS	0.06 -0.09 -0.16 -0.23 -0.28 -0.15	0/18
KSGTSVLYESRNKNSVA	GASTRES	QQYHRLPLS	0.29 0.94 0.92 0.16 0.80 0.98	0/18
KSPQSVLYESRNKNSVA	HASTRED	QSYHRLPLS	0.69 0.19 -0.24 0.13 0.05 0.29	0/18
KSSISGLYESAMKNSVA	EASTRES	QQYHRLPLS	0.27 0.39 0.25 -0.12 0.09 0.12	0/18
KSSTSVLYESRNKNSVA	DASTRES	QQYHRLPLS	0.34 0.22 0.17 0.24 0.12 0.36	1/18 (4.37)
KSSKSGLYESRMKNSVA	EASTRES	QQYHRLPLS	0.77 0.53 0.53 0.34 0.78 0.69	0/18
KLSQAFLYESRNENSVA	DANTRES	QQYHRLPLS	0.08 0.16 -0.21 -0.08 -0.09 0.20	0/18

The last 5 entries again:

CDR-L1	CDR-L2	CDR-L3	replicates, log10 nM	control signals
KSPQSVLYESRNKNSVA	HASTRED	QSYHRLPLS	0.69 0.19 -0.24 0.13 0.05 0.29	0/18
KSSISGLYESAMKNSVA	EASTRES	QQYHRLPLS	0.27 0.39 0.25 -0.12 0.09 0.12	0/18
KSSTSVLYESRNKNSVA	DASTRES	QQYHRLPLS	0.34 0.22 0.17 0.24 0.12 0.36	1/18 (4.37)
KSSKSGLYESRMKNSVA	EASTRES	QQYHRLPLS	0.77 0.53 0.53 0.34 0.78 0.69	0/18
KLSQAFLYESRNENSVA	DANTRES	QQYHRLPLS	0.08 0.16 -0.21 -0.08 -0.09 0.20	0/18

The range of this assay differs from that of the first round, and the authors advise against merging the two.
Of ten entries with the parent sequence, four were seen in most replicates (averages 0.34 to 2.37), three in one and three in none, so single entries are noisy.
The authors averaged sequences with at least three values out of six and counted those with two or fewer as poor binders.
Three control strains display no target. For all light chain designs, 4% of the pairings with them gave a signal, with a median of 2.64 and one signal in twenty below 1.59, so weak values seen in few replicates may be background. For each scFv, signals with the empty controls are counted beside the result, with their mean in brackets.